Results taken from patent US8257931B2 (President and Fellows of Harvard College, priority 2005, dated 2012).

Test system: A549 lung cancer cells
Test: A549 proliferation, sulforhodamine B (SRB) assay
Type: cell-based, human
Details: read-out: GI50 (SRB μM), Table 1, triplicate

O=C(O)/C(Cc1ccccc1)=N/Nc1nnc(-c2ccccc2)s1
GI50: 9 µM
